Measured values: publication PMC5833756, “A novel ruthenium complex with xanthoxylin induces S-phase arrest and causes ERK1/2-mediated apoptosis in HepG2 cells through a p53-independent pathway” (Cell Death & Disease, 2018)

Test system: AGP-01
Conditions: IC50 HaCAT / IC50 AGP-01

COc1cccc2c1C(=O)c1c(O)c3c(c(O)c1C2=O)C[C@@](O)(C(=O)CO)C[C@@H]3O[C@H]1C[C@H](N)[C@H](O)[C@H](C)O1 [DOX, doxorubicin]
selectivity index (SI): 0.1
